{"source": "patent US10864279B2", "about": "“Linker-drug and antibody-drug conjugate (ADC) employing the same” (priority 2016, dated 2020)", "key": {"[1]": {"assay": "Body weight and clinical symptoms, EC PDX model", "assay_type": "in vivo, NODSCID mice", "procedure": "Endometrial cancer tumor tissue obtained from National Taiwan University was confirmed to be HER2-positive (+1). Tumor (2-3 mm diameter) was subcutaneous implanted to NODSCID mice to test the drug efficacy of ADCs in vivo. When the average tumor size was about 100 mm^3, mice were divided into groups and ADCs were intravenously injected (10 mL/kg B.W. injection volume)."}, "[2]": {"assay": "Body weight and clinical symptoms, BT-474 xenograft model", "assay_type": "in vivo, NODSCID mice", "details": "10 mg/kg i.v. twice at Day 0 and Day 21", "procedure": "The length and width of the tumor were measured and the tumor size was calculated by (length×width×width×½) (mm^3) and recorded."}}}
{"substance": "ado-trastuzumab emtansine [Kadcyla, reference compound]", "values": [{"measurement": "BW (%) ± SEM Day 0-60", "setting": "[1]; 10 mg/kg i.v.", "result": "102.0 ± 3.4", "unit": "%"}, {"measurement": "weight losing or abnormal clinical symptoms after administration", "setting": "[1]; 10 mg/kg, in words", "result": "no weight losing or other significant abnormal clinical symptoms occurred"}, {"measurement": "BW (%) ± SEM Day 0-60", "setting": "[2]", "result": "107.9 ± 2^ %"}]}
